How the values were obtained:
[1] = in D2O, standard for φΔ measurement; cited from earlier work
[2] = system: HeLa tumor cells; assay: Cytotoxicity (antiproliferative assay) in the absence of light exposure; assay type: cell-based; conditions: 24 hr incubation
Protocol: Cytotoxicity was analyzed, considering the intensity of proliferative processes in cells, photosensitizer concentration, and dose of optical power. For each point, 3 flasks with cell monolayer were used.
The monolayer culture of HeLa tumor cells was chosen and used as the cell.
The culture of HeLa tumor cells was grown in nutrient medium 199 or in nutrient medium containing hemohydrolyzate supplemented with 10% fetal bovine serum and […] of kanamycin. […]
Flasks with light-protective cover (dark cytotoxicity) were incubated at 37.5° C. for 1 hour. The cells were washed with Hank's solution 4 times. 2.0 ml of fresh nutrient medium were added, and the cells were irradiated at the temperature of melting ice for 5, 10, 15 or 20 mins by the light flux of a “METALAZ” laser medical device (wavelength: 627.8 nm, 578.2 or 510.6 nm) or “LD 680-2000” (wavelength: 670-690 nm), depending on the wavelength of maximum spectral absorption of the studied photosensitizer, at a dose of 40 J/cm^2. After 20-24 hours, the number of tumor cell was counted in Goriaev's chamber.

Row | Substance | φΔ of the standard [1] | cytotoxicity in the absence of light exposure [2]
1 | Tetra(n-sulfophenyl) porphyrin [Tetra(n-sulfophenyl) porphyrin (TSPP)] | 0.7 | 
2 | [γ-(6-aminohexyl)folic acid]-chlorin e6 [chlorin e6 conjugate] |  | no cytotoxicity
